Experiments:
PAR2/NTS1R = molecular target: T1, PAR2/NTS1R (Homo sapiens, UniProt P30989); test: β-arrestin-2 recruitment (DiscoveRx PathHunter), ProLink-tagged PAR2 coexpressed with NTS1R; assay type: cell-based
T1 construct: host or cells: HEK 293 stably expressing EA-tagged β-arrestin-2

The chains behind the UniProt entries cited, without tags or fusion partners. Residues count along the entry.
UniProt P30989, whole entry: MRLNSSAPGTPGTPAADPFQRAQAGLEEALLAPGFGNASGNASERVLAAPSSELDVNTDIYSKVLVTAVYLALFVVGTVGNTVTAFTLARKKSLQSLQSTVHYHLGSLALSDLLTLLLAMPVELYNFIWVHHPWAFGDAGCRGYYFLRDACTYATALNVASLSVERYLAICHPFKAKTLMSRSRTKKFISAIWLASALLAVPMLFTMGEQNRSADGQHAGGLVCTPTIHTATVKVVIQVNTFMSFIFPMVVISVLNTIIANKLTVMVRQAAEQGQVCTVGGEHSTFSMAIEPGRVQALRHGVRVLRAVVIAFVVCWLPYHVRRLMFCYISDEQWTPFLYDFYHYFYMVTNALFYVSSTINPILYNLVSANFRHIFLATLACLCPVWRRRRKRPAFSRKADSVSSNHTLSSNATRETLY
UniProt P14416, 1-414 isoform P14416-2: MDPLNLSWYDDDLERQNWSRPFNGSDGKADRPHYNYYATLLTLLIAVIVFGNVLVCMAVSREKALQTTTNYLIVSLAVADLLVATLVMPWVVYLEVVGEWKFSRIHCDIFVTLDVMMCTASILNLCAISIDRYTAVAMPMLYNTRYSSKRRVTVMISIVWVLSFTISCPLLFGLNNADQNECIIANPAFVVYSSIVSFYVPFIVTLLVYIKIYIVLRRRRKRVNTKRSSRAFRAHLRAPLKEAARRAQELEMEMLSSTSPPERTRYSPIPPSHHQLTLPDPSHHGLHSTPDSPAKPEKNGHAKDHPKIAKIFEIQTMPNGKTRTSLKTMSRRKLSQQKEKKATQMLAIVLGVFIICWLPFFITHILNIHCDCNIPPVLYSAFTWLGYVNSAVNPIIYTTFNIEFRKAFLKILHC
UniProt P14416, whole entry: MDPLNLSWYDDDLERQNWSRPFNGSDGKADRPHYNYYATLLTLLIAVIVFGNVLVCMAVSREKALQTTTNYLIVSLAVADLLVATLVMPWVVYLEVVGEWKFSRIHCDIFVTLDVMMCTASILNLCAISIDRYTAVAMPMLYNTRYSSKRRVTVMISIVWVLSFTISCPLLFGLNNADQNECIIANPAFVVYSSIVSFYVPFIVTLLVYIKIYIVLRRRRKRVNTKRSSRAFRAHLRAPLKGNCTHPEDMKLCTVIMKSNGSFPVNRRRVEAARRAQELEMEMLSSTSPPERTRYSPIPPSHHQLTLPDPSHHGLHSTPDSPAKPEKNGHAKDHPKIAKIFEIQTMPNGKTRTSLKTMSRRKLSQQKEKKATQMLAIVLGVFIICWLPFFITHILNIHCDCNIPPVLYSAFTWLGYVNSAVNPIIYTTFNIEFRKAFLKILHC

NTS1R = NTS1R (Homo sapiens, UniProt P30989); test: cAMP BRET assay (CAMYEL biosensor), HEK 293 T cells expressing NTS1R; assay type: cell-based; parameters: expressed in transfected cells; host or cells: HEK 293 T
D2SR = molecular target: T2, D2SR (Homo sapiens, UniProt P14416); test: cAMP BRET assay (CAMYEL biosensor), HEK 293 T cells expressing D2SR; assay type: cell-based; details: 10 μM forskolin
T2 construct: expressed in transfected cells; host or cells: HEK 293 T

hD2LR = molecular target: T3, hD2LR (Homo sapiens, UniProt P14416); test: [3H]spiperone displacement, membranes from CHO cells stably expressing hD2LR; assay type: binding
T3 construct: expressed in transfected cells

hD2SR = molecular target: T4, hD2SR (Homo sapiens, UniProt P14416); test: [3H]spiperone displacement, membranes from CHO cells stably expressing hD2SR; assay type: binding
T4 construct: expressed in transfected cells

human D2LR = molecular target: T5, human D2LR (Homo sapiens, UniProt P14416); test: [3H]spiperone displacement, membranes from HEK 293 T cells transiently transfected with D2LR; assay type: binding; details: D2LR monoexpression; mean ± s.e.m.
T5 construct: host or cells: HEK 293 T

D2LR/NTS1R = D2LR/NTS1R (Homo sapiens, UniProt P14416+P30989); test: [3H]spiperone displacement, membranes from HEK 293 T cells coexpressing D2LR and NTS1R; details: Ki (monophasic competition curves), coexpressed D2LR/NTS1R, D2LR:NTS1R 1:2; mean ± s.e.m.

SMILES	Ki (hD2LR) [nM]	Ki (hD2SR) [nM]	Ki (human D2LR) [nM]	also measured
CCCN1CCC[C@@H]2Cc3n[nH]cc3C[C@H]21 [quinpirole, reference compound]				β-arrestin-2 recruitment, PAR2/NTS1R (in words) (PAR2/NTS1R): entirely inactive; cAMP response, cells expressing NTS1R only, absence of FSK (in words) (NTS1R): do not elicit any response
CC[C@H](C)[C@H](NC(=O)[C@H](Cc1ccc(O)cc1)NC(=O)[C@@H]1CCCN1C(=O)[C@H](CCCNC(=N)N)NC(=O)[C@@H](N)CCCNC(=N)N)C(=O)N[C@@H](CC(C)C)C(=O)O [NT(8-13), reference compound]				effect on forskolin-induced cAMP accumulation, cells expressing D2R only (in words) (D2SR): remained without significant effects
CC[C@H](C)[C@H](NC(=O)CN(CCc1ccc(O)cc1)C(=O)[C@@H]1CCCN1C(=O)[C@H](CCCNC(=N)N)NC(=O)[C@H](CCCNC(=N)N)NC(=O)CCOCCOCCOCCOCCOCCOCCNC(=O)c1ccc(-c2ccc(-n3cc(CCCCN4CCN(c5ccccc5OC)CC4)nn3)cc2)cc1)C(=O)N[C@@H](CC(C)C)C(=O)O [2e]	56 ± 13	23 ± 2	23 ± 5	
CCCN(CCCCc1cn(-c2ccc(-c3ccc(C(=O)NCCOC)cc3)cc2)nn1)C1Cc2ccccc2C1 [3g]				Ki (D2LR/NTS1R): 42 ± 12 nM
CC[C@H](C)[C@H](NC(=O)CN(CCc1ccc(O)cc1)C(=O)[C@@H]1CCCN1C(=O)[C@H](CCCNC(=N)N)NC(=O)[C@H](CCCNC(=N)N)NC(=O)CCOCCOCCOCCOCCOCCOCCNC(=O)CCOCCOCCOCCOCCOCCOCCNC(=O)c1ccc(-c2ccc(-n3cc(CCCCN4CCN(c5ccccc5OC)CC4)nn3)cc2)cc1)C(=O)N[C@@H](CC(C)C)C(=O)O [2f]	160 ± 100	90 ± 57	40 ± 6	

From paper PMC4963535, “Structure-guided development of heterodimer-selective GPCR ligands” (Nature Communications, 2016)
